From ChEMBL document CHEMBL1155375, “Dioxo-triazines as a novel series of cathepsin K inhibitors” (Bioorg Med Chem Lett, 2010)

What was measured:
[1] = Metabolic stability in rat plasma assessed as half life; type: ADME, cell-free
[2] = species: Homo sapiens; experiment: Metabolic stability in human plasma assessed as half life

half-life [1]: < 5 min
half-life [2]: < 5 min
SMILES: CN(C)CCn1c(=O)c(C#N)nn(-c2cccc(C(F)(F)F)c2)c1=O
